Laboratory results from publication PMC5462475, “A conformational switch high-throughput screening assay and allosteric inhibition of the flavivirus NS2B-NS3 protease” (PLoS Pathogens, 2017).
Where “and” joins values, the source holds several entries; their conditions need not be identical. Identical values can stand only once.

Assays:
[1] = molecular target: DENV2 NS2B-NS3 protease (Dengue virus type 2, UniProt P14340); experiment: DENV2 NS2B-NS3 protease inhibition assay (linked protease, fluorescent peptide substrate); conditions: for reduction of the activity of DENV2 protease: compound at 100 μM; for Hill Coefficient of DENV2 protease inhibition curve: linked DENV2 NS2B-NS3 protease 150 nM, Abz substrate 100 μM
[2] = molecular target: linked DENV2 NS2B-NS3 (Dengue virus type 2, UniProt P14340); experiment: Protein thermal shift assay (PTSA), linked WT DENV2 NS2B-NS3; conditions: Fig 10D

SMILES	IC50 [1]	reduction of the activity of DENV2 protease [1]	Hill Coefficient of DENV2 protease inhibition curve [1]	Tm (WT) [2]	Hill Coefficient of DENV2 protease inhibition curve ([1]; listed as 135618)
O=C(Nc1ccc(Nc2ccncc2)cc1)c1ccc(Nc2ccnc3ccc([N+](=O)[O-])cc23)cc1 [NSC146771]	4.8 µM	more than 80%	2.03 and 2.0		
Cn1ccc(=Nc2ccc(NC(=O)c3ccc(N=c4ccn(C)c5ccc([N+](=O)[O-])cc45)cc3)cc2)cc1 [NSC260594]	11.4 µM	more than 80%	5.38 and 5.4		
O=C1C=CC(=NNc2ccc([N+](=O)[O-])cc2Cl)C=C1C(=O)Nc1cccc(Cl)c1 [NSC135618]		more than 80%	0.73	43.09 °C	0.7
